## AlphaSeq binding of Ab-14 heavy chain variants to a spike HR2 peptide

Reference: Engelhart et al. 2022, doi:10.1038/s41597-022-01779-4. File: FLAb, binding data.

Antigen: PDVDLGDISGINAS, a 14-residue peptide of the SARS-CoV-2 spike HR2 region.

Each scFv is VH, three GGGGS repeats, VL, as in the parent Ab-14, and differs from it in the CDRs of the heavy chain only.
VH: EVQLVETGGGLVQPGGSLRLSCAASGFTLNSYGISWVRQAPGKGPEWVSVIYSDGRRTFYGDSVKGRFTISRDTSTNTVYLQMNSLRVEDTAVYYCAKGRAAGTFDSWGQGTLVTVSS
VL: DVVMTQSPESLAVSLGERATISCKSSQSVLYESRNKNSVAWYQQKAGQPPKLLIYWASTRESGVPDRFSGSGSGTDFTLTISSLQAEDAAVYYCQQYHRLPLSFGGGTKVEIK

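Phage display of a naive human antibody library on the peptide gave the parent. AAYL49 was designed without a model: most single CDR substitutions and a random sample of double and triple ones. The assay is AlphaSeq: two haploid yeast populations carry antibody and antigen on their surface. The frequency of each diploid, read from paired DNA barcodes, reflects how well the two displayed proteins bind. A regression on co-assayed BCL2-family reference pairs converts the normalised counts of each replicate to an apparent Kd. There are three technical replicates.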

Variants are written as CDR1, CDR2 and CDR3 of the heavy chain (limits as in the source). Parent: GFTLNSYGIS, VIYSDGRRTFYGDSVK, GRAAGTFDS. Scale: log10 of Kd in nM, estimated from mating counts; low values are strong binders. The mean shown is taken over the replicates in which the pair was detected. "no signal" means that the variant was in the library but no mating with the target was seen in any replicate; the authors take this as a sign of poor binding, and no number exists. Empty control strains, which show no peptide, gave a signal in 15% of pairings with library AAYL49; the median was 4.06 and 95% of these signals were weaker than 2.83. No background was subtracted. Also given: how often the same scFv was detected with the empty control strains.

| # | CDR-H1 | CDR-H2 | CDR-H3 | log10 Kd (nM), mean | seen in | empty controls |
|---|---|---|---|---|---|---|
| 1 | GFTLNSYGIS | VIYSDGRKTFYGDSVK | GRAAGTFYS | 1.84 | 3 of 3 | 4 of 9 |
| 2 | GFTLNTYGTS | VFYSDGRRTFYGDSVK | GRAAGTFDS | no signal | 0 of 3 | 2 of 9 |
| 3 | GFTLNSYGIS | VIYSDRRRTFDGDSVK | GRAAGTFGS | 4.66 | 2 of 3 | 3 of 9 |
| 4 | GFTLNRYGIS | VIFSDGRRTFTGDSVK | GRAAGTFDS | 4.06 | 2 of 3 | 0 of 9 |
| 5 | GFTLMSYGIS | VIYSDKRRTFYGDSVK | GRAYGTFDS | no signal | 0 of 3 | 0 of 9 |
| 6 | GFTLNHYGIS | QIYSDGRRTFYGDSVK | GRAAGTFKS | no signal | 0 of 3 | 3 of 9 |
| 7 | GFTLNSYGIS | VIWSEGRRTFYGDSVK | GRAAGTFDS | no signal | 0 of 3 | 2 of 9 |
| 8 | GFTLNSYGIS | VIYSDGRRTFYGDSVT | GRAAYTFDS | 4.47 | 2 of 3 | 6 of 9 |
| 9 | GFTLESYGIS | VIGSDGRRTFYGDSVK | GRAAGYFDS | 6.36 | 1 of 3 | 3 of 9 |
| 10 | GFTLNSYGIS | AIESDGHRTFYGDSVK | GRAAGTFDS | 4.08 | 1 of 3 | 2 of 9 |
| 11 | GFRLNWYGIS | VIYSDGRRTFYGDSVK | GGAAGTFDS | 3.48 | 2 of 3 | 4 of 9 |
| 12 | GFLLNSYGIS | QIYSDGRRTFYGDSVK | WRAAGTFDS | 5.51 | 1 of 3 | 0 of 9 |
| 13 | GFTLNSYGIS | VIYSDGRPTFYGDSVK | GRAAGTADF | no signal | 0 of 3 | 0 of 9 |
| 14 | GFTLNSYGIS | VIYSDIRRHFYGDSVK | GRAAGRFDS | 2.65 | 2 of 3 | 1 of 9 |
| 15 | GFTLNFYGGS | VIYSDGRRTFYGDSVK | GRQAGTFDS | no signal | 0 of 3 | 1 of 9 |
| 16 | GFTLNSYGWS | RIYSDGRRTFYGDSVK | GRAAGTFDD | no signal | 0 of 3 | 0 of 9 |
| 17 | GFTLNSYGIS | IWYSDGRRTFYGDSVY | GRAAGTFDS | no signal | 0 of 3 | 0 of 9 |
| 18 | GFTLNSYGIS | VIYSDGPSTFYGDSVK | GRAAFTFDS | 5.34 | 1 of 3 | 5 of 9 |
| 19 | GFTLNSYGIS | VIYSDSRRTYYGDSVK | GRAAGTEDS | no signal | 0 of 3 | 0 of 9 |
| 20 | GFTLNSYGIS | VCYSDGRRFFYGDSVW | GRAAGTFDS | no signal | 0 of 3 | 0 of 9 |
| 21 | GFTLNSYGII | VIYSDGARTEYGDSVK | GRAAGTFDS | 5.02 | 1 of 3 | 2 of 9 |
| 22 | GFTLNSYGAS | VIYSDGRRCFYGASVK | GRAAGTFDS | 6.60 | 1 of 3 | 5 of 9 |
| 23 | GFTLNSYGIS | VPYSDHRRTFYGDSVK | GRAAGTFMS | 2.40 | 1 of 3 | 0 of 9 |
| 24 | GFTLNWYGIS | VIYTDGRRTFYGWSVK | GRAAGTFDS | no signal | 0 of 3 | 0 of 9 |
| 25 | GFTLNSYEIS | VIYSDGRRTFYGDSVK | GRKAGTFDA | no signal | 0 of 3 | 1 of 9 |
| 26 | GKTLNSYGIS | VIYSDWRRTFYGDIVK | GRAAGTFDS | no signal | 0 of 3 | 0 of 9 |
| 27 | GFTLNKYGWS | VIYWDGRRTFYGDSVK | GRAAGTFDS | 5.16 | 2 of 3 | 2 of 9 |
| 28 | GFTLMSYRIS | VISSDGRRTFYGDSVK | GRAAGTFDS | 4.86 | 1 of 3 | 4 of 9 |
| 29 | GFTLNSYGIS | VITSDGRRTFYGWSVK | KRAAGTFDS | 4.10 | 1 of 3 | 1 of 9 |
| 30 | GFTLNSYGIS | VIGEDGRRTFYGDSVK | GRAAGTFDS | no signal | 0 of 3 | 0 of 9 |
| 31 | GFTLNKYGIS | VIYSDIRRTFYGDRVK | GRAAGTFDS | no signal | 0 of 3 | 0 of 9 |
| 32 | GFTLNSYGIS | VIYSDGRRTFYGDMVT | GRAAGTFDW | no signal | 0 of 3 | 0 of 9 |
| 33 | GFTLNSYGIS | VIYSDGRGTFYGDSVK | GHAAPTFDS | 3.85 | 1 of 3 | 2 of 9 |
| 34 | GFTLNSYGIS | VIYSDGRRTFYDDSVK | GRAAGTFDF | 2.26 | 3 of 3 | 1 of 9 |
| 35 | GFTLNSYGIS | VIYSDGRRTFYGDSYK | GRNAVTFDS | no signal | 0 of 3 | 0 of 9 |
| 36 | YFTLNSYGIS | VIYSEGRRTFYGDSVK | GRAAGTFNS | no signal | 0 of 3 | 0 of 9 |
| 37 | GFTLNFVGIS | VIYSDWRRTFYGDSVK | GRAAGTFDS | no signal | 0 of 3 | 1 of 9 |
| 38 | GFTLDSYGII | VIYSDGRRTFRGDSVK | GRAAGTFDS | 5.18 | 2 of 3 | 4 of 9 |
| 39 | GFTLNSGGIA | VIYSDGRRTFYGDSVK | GRAAGTFQS | 5.70 | 1 of 3 | 3 of 9 |
| 40 | GFTLNSYGIS | VIYSDGRRTFYGDSVK | GRHAGTFLT | 1.62 | 3 of 3 | 0 of 9 |
| 41 | GFTLNSYGIS | VIYSPCRRTFYGDSVK | GRAAGTFDG | no signal | 0 of 3 | 0 of 9 |
| 42 | GTTLNSYGIS | VIYSDGRRTFWGDSVY | GRAAGTFDS | no signal | 0 of 3 | 1 of 9 |
| 43 | GFTLNSYGIS | VIYSDGRDTFYGASVK | GRAIGTFDS | no signal | 0 of 3 | 0 of 9 |
| 44 | GFTLNSYGIS | VIYSDGRRTFKGDSVI | ARAAGTFDS | no signal | 0 of 3 | 0 of 9 |
| 45 | GFTWNSYGIS | VIYSKGRRTFYGDSVK | GRAAGDFDS | 3.07 | 2 of 3 | 2 of 9 |
| 46 | GFVLNSYGIS | VIYSDGRRTFYGDSVE | GRAWGTFDS | 3.92 | 1 of 3 | 2 of 9 |
| 47 | GFTLNTYPIS | VIYSDGRRTFYGDSVK | GRRAGTFDS | 4.65 | 1 of 3 | 1 of 9 |
| 48 | GFTKNSYGIS | VIVSDGRRTFYGDSVK | GRAAGTSDS | 4.21 | 2 of 3 | 1 of 9 |
| 49 | GFTLNSWGAS | VIYSDGRRTFYGDSVK | GRAAGTFDS | no signal | 0 of 3 | 0 of 9 |
| 50 | GFTQNSYGIS | VIYFDGRRTFYGDSVK | GRAAATFDS | no signal | 0 of 3 | 0 of 9 |
| 51 | GFTLNSYGIY | VIYSDQRRTFYGDSVR | GRAAGTFDS | no signal | 0 of 3 | 1 of 9 |
| 52 | GFTLNSYGIS | VIRSDGRRLFYGDSVT | GRAAGTFDS | no signal | 0 of 3 | 0 of 9 |
| 53 | GTTLNSYGIR | VIYSDGRRFFYGDSVK | GRAAGTFDS | 3.42 | 1 of 3 | 2 of 9 |
| 54 | GFTLNSYGIS | VIYSDGYRTFYGDSVK | GRYHGTFDS | 4.60 | 3 of 3 | 6 of 9 |
| 55 | GFTLNSYGIS | HIYSKGRRTFYGDSVK | GRAAGKFDS | no signal | 0 of 3 | 0 of 9 |
| 56 | GFTLNSYGIE | VIYSDGRVTFYGDSVK | GRAAGTFIS | no signal | 0 of 3 | 1 of 9 |
| 57 | GFTLNSYGIS | VIQSDGRRTFYSDSVK | GRGAGTFDS | no signal | 0 of 3 | 3 of 9 |
| 58 | TFTLNSYGID | VIYSDGRRTFYGDSVK | GRAAGTFDR | no signal | 0 of 3 | 0 of 9 |
| 59 | GDTLNSYGIG | VIYSDGRRTFYGDWVK | GRAAGTFDS | 4.01 | 1 of 3 | 6 of 9 |
| 60 | GFTLNVYGIS | VIYSDGRRTFYGDRVK | PRAAGTFDS | 1.75 | 2 of 3 | 0 of 9 |
| 61 | GFTFNSYGIS | VIYSDNRRTFYGDSVK | GRQAGTFDS | no signal | 0 of 3 | 0 of 9 |
| 62 | GFTLNSYGIS | VIYSDGRRTFYGDSVK | GRAAGWFDK | no signal | 0 of 3 | 0 of 9 |
| 63 | GFTLNSYGID | VIYSDGRRTFLGDSVK | GQAAGTFDS | 3.43 | 1 of 3 | 2 of 9 |
| 64 | GFTYNSYGIQ | VIYSDGRRTFYGDSCK | GRAAGTFDS | 4.19 | 1 of 3 | 0 of 9 |
| 65 | GLTLNSYGIS | VIYSDGRRTFYGDIVK | GRAAGTIDS | 5.76 | 1 of 3 | 4 of 9 |
| 66 | GFTLNSYGIS | VIYSDGRTTFYGDSVK | GRAAGTPAS | 2.14 | 3 of 3 | 1 of 9 |
| 67 | GFTLNSYGCY | VIYSDGRRTHYGDSVK | GRAAGTFDS | no signal | 0 of 3 | 1 of 9 |
| 68 | GFTLRSYGIS | VIYSDGRRTFYGDSVK | TRAAGRFDS | 5.03 | 1 of 3 | 1 of 9 |

Top 4 of the variants detected in all replicates, tightest first:

| CDR-H1 | CDR-H2 | CDR-H3 | log10 Kd (nM), mean | seen in | empty controls |
|---|---|---|---|---|---|
| GFTLNSYGIS | VIYSDGRRTFYGDSVK | GRHAGTFLT | 1.62 | 3 of 3 | 0 of 9 |
| GFTLNSYGIS | VIYSDGRKTFYGDSVK | GRAAGTFYS | 1.84 | 3 of 3 | 4 of 9 |
| GFTLNSYGIS | VIYSDGRTTFYGDSVK | GRAAGTPAS | 2.14 | 3 of 3 | 1 of 9 |
| GFTLNSYGIS | VIYSDGRRTFYDDSVK | GRAAGTFDF | 2.26 | 3 of 3 | 1 of 9 |